Measurements from ChEMBL document CHEMBL1140657, “SAR of a novel 'Anthranilamide Like' series of VEGFR-2, multi protein kinase inhibitors for the treatment of cancer” (Bioorg Med Chem Lett, 2007).

Amino acid sequences for entries named in this document (tags omitted).
UniProt P15056, whole entry: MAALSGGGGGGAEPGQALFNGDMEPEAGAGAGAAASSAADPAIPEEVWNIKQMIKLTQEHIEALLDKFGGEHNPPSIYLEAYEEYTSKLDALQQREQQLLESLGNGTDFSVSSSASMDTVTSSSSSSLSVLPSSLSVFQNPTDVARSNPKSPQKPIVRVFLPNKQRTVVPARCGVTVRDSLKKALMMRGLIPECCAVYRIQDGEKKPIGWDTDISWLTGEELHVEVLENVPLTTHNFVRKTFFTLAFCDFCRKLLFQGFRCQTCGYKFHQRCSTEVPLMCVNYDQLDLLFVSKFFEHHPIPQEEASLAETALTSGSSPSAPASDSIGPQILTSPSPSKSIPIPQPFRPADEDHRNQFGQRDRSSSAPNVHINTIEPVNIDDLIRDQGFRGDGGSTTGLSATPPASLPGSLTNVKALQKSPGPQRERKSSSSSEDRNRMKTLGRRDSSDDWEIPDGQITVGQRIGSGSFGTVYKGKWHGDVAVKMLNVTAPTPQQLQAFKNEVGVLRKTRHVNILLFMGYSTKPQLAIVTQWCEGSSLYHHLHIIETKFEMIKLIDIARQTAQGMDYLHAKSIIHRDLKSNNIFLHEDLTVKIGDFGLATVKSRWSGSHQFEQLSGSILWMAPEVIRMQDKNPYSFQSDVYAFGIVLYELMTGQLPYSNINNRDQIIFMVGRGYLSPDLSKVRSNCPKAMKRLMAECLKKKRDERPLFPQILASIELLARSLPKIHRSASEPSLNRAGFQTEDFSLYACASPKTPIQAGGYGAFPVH

Target: Serine/threonine-protein kinase B-raf (Homo sapiens, UniProt P15056)
Experiment: Inhibition of b-Raf

Compared with `CNC(=O)Nc1ccc(CNc2c(C(=O)Nc3ccc4c(c3)OC(F)(F)C(F)(F)O4)cnn2C)cn1`, `CNC(=O)Nc1ccc(CNc2ncsc2C(=O)Nc2ccc3c(c2)OC(F)(F)O3)cn1` is 2.8-fold lower in IC50: 191 nM for the first, 69 nM for the second.

In the case of `CCNC(=O)Nc1ccc(CNc2ncsc2C(=O)Nc2ccc3c(c2)OC(F)(F)O3)cn1`, the IC50 is reported as 122 nM.
